Paper PMC10413649 (Science Advances, 2023)

Sequences of proteins named here, by UniProt entry; tags and fusion partners are left off. A change or cut given only in a name is not applied to a line headed by its entry.
UniProt P12956: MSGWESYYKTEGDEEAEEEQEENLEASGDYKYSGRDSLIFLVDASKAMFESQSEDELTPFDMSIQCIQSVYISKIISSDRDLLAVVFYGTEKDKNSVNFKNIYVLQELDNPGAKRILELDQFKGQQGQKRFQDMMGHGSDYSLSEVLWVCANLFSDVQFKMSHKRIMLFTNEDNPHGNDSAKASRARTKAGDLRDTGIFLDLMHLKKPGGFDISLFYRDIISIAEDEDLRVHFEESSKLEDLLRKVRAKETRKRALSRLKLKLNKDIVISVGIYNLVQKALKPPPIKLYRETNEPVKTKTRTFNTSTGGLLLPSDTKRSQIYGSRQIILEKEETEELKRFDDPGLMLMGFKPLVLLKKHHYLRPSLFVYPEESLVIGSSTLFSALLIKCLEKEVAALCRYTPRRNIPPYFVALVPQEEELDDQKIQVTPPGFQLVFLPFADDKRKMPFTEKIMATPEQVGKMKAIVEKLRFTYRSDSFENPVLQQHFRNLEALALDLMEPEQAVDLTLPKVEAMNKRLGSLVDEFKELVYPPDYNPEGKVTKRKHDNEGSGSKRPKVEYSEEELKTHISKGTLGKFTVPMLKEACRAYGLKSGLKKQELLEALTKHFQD
UniProt P13010: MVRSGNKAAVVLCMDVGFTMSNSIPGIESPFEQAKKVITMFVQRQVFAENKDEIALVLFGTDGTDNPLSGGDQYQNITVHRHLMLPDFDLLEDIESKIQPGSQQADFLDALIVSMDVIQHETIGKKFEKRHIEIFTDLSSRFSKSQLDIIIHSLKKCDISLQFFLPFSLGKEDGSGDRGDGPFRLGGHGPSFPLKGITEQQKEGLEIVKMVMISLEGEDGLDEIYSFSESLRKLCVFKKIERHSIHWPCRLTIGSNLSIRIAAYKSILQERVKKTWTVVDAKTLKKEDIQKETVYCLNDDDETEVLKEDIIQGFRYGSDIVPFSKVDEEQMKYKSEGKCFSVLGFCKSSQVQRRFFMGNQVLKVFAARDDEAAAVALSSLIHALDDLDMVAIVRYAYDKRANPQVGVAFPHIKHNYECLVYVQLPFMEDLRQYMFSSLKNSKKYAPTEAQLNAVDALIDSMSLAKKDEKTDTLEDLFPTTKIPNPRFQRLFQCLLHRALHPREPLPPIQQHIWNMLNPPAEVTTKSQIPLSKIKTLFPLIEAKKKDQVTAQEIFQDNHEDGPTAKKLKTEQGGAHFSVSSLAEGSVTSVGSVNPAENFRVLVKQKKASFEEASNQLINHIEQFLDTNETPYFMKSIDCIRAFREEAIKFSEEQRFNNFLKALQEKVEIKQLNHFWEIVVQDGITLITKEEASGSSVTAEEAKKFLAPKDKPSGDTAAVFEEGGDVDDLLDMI

Key:
Ku70/80-DNA(F) = target: T1, Ku70/80-DNA(F) (Homo sapiens, UniProt P12956+P13010); test: ITC, Ku-DNA(F) complex in cell titrated with PAXX or P-KBM peptides; format: binding; set-up: key to Kd: NI: no interaction; settings: for Kd: ITC (VP-ITC), ITC cell: Ku-DNA(F), full-length Ku 5 μM, Ku:DNA 1:1.2, syringe peptide 50-100 μM, 20 mM tris (pH 8), 150 mM NaCl, 5 mM β-mercaptoethanol, 25°C, single set of independent sites fit; for interaction with Ku (ITC, words): same conditions as WT P-KBM
T1 construct: For ITC measurements, the full-length Ku heterodimer was used with the DNA G and F; 10xHis-tag followed by TEV protease site (N); made in house; host or cells: Sf21 insect cells (MultiBac)

[1] = tested on: DNA-PKcs S2056 phosphorylation in HEK-293T cells; test: DNA-PKcs S2056 phosphorylation, complementation of PAXX/XLF double KO cells (DNA end synapsis); format: cell-based, human; settings: PAXX/XLF double KO HEK-293T cells complemented; 200 pM calicheamicin for 1 hr; Western blot; fig. S19
Procedure: (§1) Stock solution of calicheamicin γ1 (Cali), gift from P. R. Hamann (Wyeth Research, Pearl River, NY, USA), was made at 40 μM in ethanol and stored at −20°C. For drug exposure, exponentially growing cells in 60-cm-diameter dishes were either mock-treated or treated with Cali in fresh medium for 1 hour at 37°C. Then, cells were washed with PBS and trypsinized. Pellets were fractionated as follows. Cells were first resuspended for 7 min on ice in 120 μl of extraction buffer 1 [50 mM Hepes (pH 7.5), 150 mM NaCl, and 1 mM EDTA] containing 0.1% Triton X-100 and supplemented with the Halt protease and phosphatase inhibitor cocktail (Thermo Fisher Scientific) with intermittent gentle vortexing. […] Protein content was measured with BCA reagent (Pierce), and equivalent protein amounts were denaturated in loading buffer at 1× final concentration [50 mM tris-HCl (pH 6.8), 10% glycerol, 1% SDS, 300 mM 2-mercaptoethanol, and 0.01% bromophenol blue] at 95°C for 5 min, separated on SDS–polyacrylamide gel electrophoresis gels (Bio-Rad; 4 to 15% Tris-Glycine eXtended) precast gels) before overnight transfer onto Immobilon-P polyvinylidene difluoride (Millipore) membranes. […]

[2] = tested on: damaged chromatin fraction of U2OS cells expressing WT or mutated Ku70; test: Western blot of chromatin fractions after calicheamicin; format: cell-based, human; settings: 3 nM calicheamicin for 1 hour, Fig. 3E
Procedure: as §1

[3] = tested on: laser-induced DNA damage sites in U2OS cells; test: Laser microirradiation, GFP-PAXX and mCherry-XLF coexpressed in U2OS cells with WT or mutated Ku70; format: cell-based, human; settings: U2OS cells expressing Ku70 mutants; Fig. 5, B to E
Description: Fig. 5. […] Ku70 is in orange, Ku80 in green, and DNA in yellow. (B) Principle of the laser microirradiation experiment and (C) representative images before and after irradiation of nuclei from U2OS cells expressing WT or mutated Ku70, cotransfected with GFP-PAXX and mCherry-XLF. (D and E) Quantification of fluorescence accumulation at laser-induced DNA damage sites in cells expressing GFP-PAXX and mCherry-XLF. Results were plotted as mean values ± SEM. Ku70 mutants are colored accordingly. (F) Western blotting on whole cell extracts from HEK-293T cells as stated, treated or not with 150 pM calicheamicin (Cali) for 1 hour. (G) Histogram with mean values ± SEM of end joining efficiency in HEK-293T cells as indicated, quantified by fluorescence expression analyzed by flow cytometry 48 hours after cell cotransfection with Cas9-targeted reporter and control circular plasmids. Values were set at 100% for the WT condition and statistical analysis was performed using the unpaired Student’s t-test. The P values for PAXXKO vs WT and XLFKO vs WT were 0.0188 (*) and 0.0011 (**), respectively. The P values for XLFKO/PAXXKO vs WT and XLFKO/PAXXKO vs XLFKO were <0.0001 (****).
The generation of U2OS cells expressing a mAID-Ku70 in place of the endogenous protein was achieved as follows. […]

| Substance | Kd (Ku70/80-DNA(F)) | interaction with Ku (ITC, words) (Ku70/80-DNA(F)) | other results |
| --- | --- | --- | --- |
| Ac-RRRCPGEALINPGFKSKKPAGGVDFDET-COOH [KBM(SA), P-KBM peptide with S184A mutation] | NI | no interaction with Ku |  |
| Ac-RRRCPGESLIEPGFKSKKPAGGVDFDET-COOH [KBM(NE), P-KBM peptide with N187E mutation] | NI | no interaction with Ku |  |
| Ac-RRRCPGESLINPGFKSKKPAGGADADET-COOH [KBM(VFAA), P-KBM peptide with double mutation V199A + F201A] | NI | no interaction with Ku |  |
| PAXX bearing a F201A-mutated P-KBM: PAXX protein with F201A mutation in the P-KBM, used for complementation |  |  | recovery of PAXX-dependent synapsis function (DNA-PKcs P-S2056) [1]: but not with PAXX bearing a F201A-mutated P-KBM |
| PAXX: full-length PAXX, paralog of XRCC4 and XLF, 6xHis-tag, expressed in E. coli; WT protein also expressed in cells |  |  | recovery of PAXX-dependent synapsis function (DNA-PKcs P-S2056) [1]: can be recovered |
| XLF: XRCC4-like factor, NHEJ core protein |  |  | recruitment to damaged chromatin fraction, Ku70 Patch 1 or Patch 2 mutated [2]: recruited at levels comparable to the control cells |
| mCherry-XLF: mCherry-tagged XLF expressed in U2OS cells |  |  | recruitment of coexpressed GFP-PAXX / mCherry-XLF to DNA damage sites with Ku70 mutations [3]: preserved |
